In this data set the test system is male Wistar rats.

As a reminder, the LD50 is the dose at which mortality reaches 50%. For sodium vanadate [reference compound], the “symptoms at high doses” value (high doses, tungstate up to 8000 mg/kg) was “diarrhea, convulsions, and blood in the feces”. This substance also showed an LD50 (oral (intragastric) single dose, Wistar rats, ten days, method of Horn, 14400 min) of 98 mg/kg.

The record behind these values is patent US5595763A (priority 1995, dated 1997).
